{"source": "patent US6444811B1", "about": "“Pyrazinones, compositions containing such compounds and methods of use” (Merck Frosst Canada & Co., priority 1999, dated 2002)", "origin": "cited, not measured here", "key": {"caspase-1": {"molecular_target": "T1, caspase-1 (Homo sapiens, UniProt P29466)", "T1 sequence (P29466 120-297 limits assumed)": "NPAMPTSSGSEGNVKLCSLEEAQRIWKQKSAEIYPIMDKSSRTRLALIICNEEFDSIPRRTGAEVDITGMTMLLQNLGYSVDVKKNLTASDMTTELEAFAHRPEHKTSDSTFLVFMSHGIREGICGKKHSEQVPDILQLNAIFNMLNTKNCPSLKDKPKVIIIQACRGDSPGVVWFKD", "T1 sequence (P29466 317-404 limits assumed)": "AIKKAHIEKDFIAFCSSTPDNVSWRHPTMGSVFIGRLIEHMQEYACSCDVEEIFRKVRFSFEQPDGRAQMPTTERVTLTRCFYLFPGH"}, "caspase-3": {"molecular_target": "T2, caspase-3 (Homo sapiens, UniProt P42574)", "T2 sequence (P42574 29-175 limits assumed)": "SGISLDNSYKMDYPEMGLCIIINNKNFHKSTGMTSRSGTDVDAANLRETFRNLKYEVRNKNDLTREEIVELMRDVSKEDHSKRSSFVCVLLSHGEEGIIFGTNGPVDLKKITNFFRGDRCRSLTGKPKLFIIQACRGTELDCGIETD", "T2 sequence (P42574 176-277 limits assumed)": "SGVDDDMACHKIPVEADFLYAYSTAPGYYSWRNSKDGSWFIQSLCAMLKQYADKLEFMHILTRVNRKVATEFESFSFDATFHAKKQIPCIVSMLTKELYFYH"}}, "data": [{"substance": "Ac-DEVD-CHO", "values": [{"measurement": "inhibition of caspase-1 (in words)", "setting": "caspase-1", "value": "weaker but reasonable inhibitor of caspase-1"}, {"measurement": "Ki", "setting": "caspase-3", "value": "< 1", "unit": "nM"}, {"measurement": "kon caspase-3", "setting": "caspase-3; slow-binding time-dependent inhibition", "value": 130000, "unit": "M⁻¹ s⁻¹"}]}]}
